Experimental data taken from ChEMBL document CHEMBL3639292, “17-hydroxy-19-nor-21-carboxylic acid-steroid Œ=-lactone derivative, use thereof, and medicament containing the derivative” (2015).

Target: T1, Progesterone receptor (Homo sapiens, UniProt P06401)
T1 sequence (P06401 whole entry): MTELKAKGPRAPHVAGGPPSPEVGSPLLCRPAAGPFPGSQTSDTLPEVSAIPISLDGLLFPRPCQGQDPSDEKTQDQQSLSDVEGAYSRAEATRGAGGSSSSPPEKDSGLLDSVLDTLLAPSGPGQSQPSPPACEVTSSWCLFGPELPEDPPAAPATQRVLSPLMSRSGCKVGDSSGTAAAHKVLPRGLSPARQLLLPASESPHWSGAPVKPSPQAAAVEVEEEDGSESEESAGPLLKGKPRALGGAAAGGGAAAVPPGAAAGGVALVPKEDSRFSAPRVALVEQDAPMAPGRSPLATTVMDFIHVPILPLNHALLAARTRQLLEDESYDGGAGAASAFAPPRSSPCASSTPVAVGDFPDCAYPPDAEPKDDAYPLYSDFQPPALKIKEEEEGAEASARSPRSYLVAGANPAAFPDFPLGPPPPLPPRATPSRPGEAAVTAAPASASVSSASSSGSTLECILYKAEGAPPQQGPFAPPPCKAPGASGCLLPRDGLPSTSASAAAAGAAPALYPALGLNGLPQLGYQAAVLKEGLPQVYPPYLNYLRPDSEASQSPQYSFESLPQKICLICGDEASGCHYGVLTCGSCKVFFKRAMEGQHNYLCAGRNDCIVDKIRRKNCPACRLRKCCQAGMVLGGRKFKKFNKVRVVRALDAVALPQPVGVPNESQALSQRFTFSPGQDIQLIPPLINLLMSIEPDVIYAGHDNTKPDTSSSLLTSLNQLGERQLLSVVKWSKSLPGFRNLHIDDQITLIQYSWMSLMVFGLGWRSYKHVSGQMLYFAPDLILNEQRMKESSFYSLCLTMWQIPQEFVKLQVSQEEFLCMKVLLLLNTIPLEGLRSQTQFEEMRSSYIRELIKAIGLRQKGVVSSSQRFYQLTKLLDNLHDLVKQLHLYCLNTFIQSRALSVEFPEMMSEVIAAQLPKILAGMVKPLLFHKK
Assay: Binding Assay: Using cytosol from progesterone receptor-expressing insect cells (Hi5), competitive binding to the progesterone receptor was determined from the ability to displace 3H-progesterone as reference substance from the receptor.

Row | SMILES | IC50 [nM]
1 | CC[C@]12CC[C@H]3[C@@H](CC4(CC4)C4=CC(=O)CC[C@@H]43)[C@@H]1CC[C@@]21C=CC(=O)O1 | 49
2 | C[C@]12CC[C@H]3[C@@H](CC4(CC4)C4=CC(=O)CC[C@@H]43)[C@@H]1CC[C@@]21C=CC(=O)O1 | 44
